Measurements taken from patent US9771337B2, “Neprilysin inhibitors” (THERAVANCE BIOPHARMA R&D IP, LLC, priority 2011, dated 2017).

Protein sequences, listed by entry. Tags and fused reporters are not part of them.
UniProt P08473, whole entry: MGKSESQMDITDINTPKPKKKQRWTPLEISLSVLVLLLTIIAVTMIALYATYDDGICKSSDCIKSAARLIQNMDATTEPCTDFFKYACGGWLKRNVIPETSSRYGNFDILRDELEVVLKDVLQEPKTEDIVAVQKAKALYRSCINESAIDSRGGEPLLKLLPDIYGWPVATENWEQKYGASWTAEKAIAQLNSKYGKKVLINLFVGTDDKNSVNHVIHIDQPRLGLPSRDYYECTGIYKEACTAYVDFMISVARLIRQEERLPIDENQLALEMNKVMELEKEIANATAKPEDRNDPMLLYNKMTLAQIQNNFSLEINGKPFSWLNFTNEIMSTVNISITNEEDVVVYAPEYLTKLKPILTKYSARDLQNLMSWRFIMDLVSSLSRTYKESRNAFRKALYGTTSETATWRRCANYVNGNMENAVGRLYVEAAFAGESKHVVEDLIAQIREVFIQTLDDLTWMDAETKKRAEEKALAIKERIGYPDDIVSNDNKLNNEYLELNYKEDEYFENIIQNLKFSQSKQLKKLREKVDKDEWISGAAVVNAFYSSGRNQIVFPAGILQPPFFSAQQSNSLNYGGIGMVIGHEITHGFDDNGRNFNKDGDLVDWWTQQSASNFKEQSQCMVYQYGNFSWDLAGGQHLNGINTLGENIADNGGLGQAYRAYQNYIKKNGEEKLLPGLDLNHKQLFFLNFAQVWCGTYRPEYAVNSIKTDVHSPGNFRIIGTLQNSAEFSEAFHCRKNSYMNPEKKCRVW

Molecular target: human NEP (Homo sapiens, UniProt P08473)
Test: In vitro enzyme inhibition assay, inhibitor potency at human NEP
Conditions: pKi values at human NEP, recombinant human NEP, fluorogenic peptide substrate 10 μM, 37° C.
Method: The inhibitory activities of compounds at human and rat neprilysin (EC 3.4.24.11; NEP) and human angiotensin converting enzyme (ACE) were determined using in vitro assays as described below.
Recombinant human NEP and recombinant human ACE were obtained commercially (R&D Systems, Minneapolis, Minn., catalog numbers 1182-ZN and 929-ZN, respectively). The fluorogenic peptide substrate Mca-D-Arg-Arg-Leu-Dap-(Dnp)-OH (Medeiros et al. (1997) Braz. J. Med. Biol. Res. 30:1157-62; Anaspec, San Jose, Calif.) and Abz-Phe-Arg-Lys(Dnp)-Pro-OH (Araujo et al. (2000) Biochemistry 39:8519-8525; Bachem, Torrance, Calif.) were used in the NEP and ACE assays respectively.
The assays were performed in 384-well white opaque plates at 37° C. using the fluorogenic peptide substrates at a concentration of 10 μM in Assay Buffer (NEP: 50 mM HEPES, pH 7.5, 100 mM NaCl, 0.01% polyethylene glycol sorbitan monolaurate (Tween-20), 10 μM ZnSO4; ACE: 50 mM HEPES, pH 7.5, 100 mM NaCl, 0.01% Tween-20, 1 μM ZnSO4).
Test compounds were assayed over the range of concentrations from […] to 20 μM. Test compounds were added to the enzymes and incubated for 30 minute at 37° C. prior to initiating the reaction by the addition of substrate. […]
Plates were read on a fluorometer with excitation and emission wavelengths set to 320 nm and 405 nm, respectively. […]

Row | pKi (tested form: TFA) | pKi | Structure (SMILES)
1 | ≧9.0 |  | O=C(N[C@H](Cc1ccccc1Cl)[C@@H](O)C(=O)O)c1cc(-c2ccccc2C(=O)O)ccn1
2 |  | 8.0-8.9 | O=C(N[C@H](Cc1ccccc1)[C@@H](O)C(=O)O)c1ccc(-c2ccccc2C(=O)O)nn1
